Data published in patent US5593970A, “Heterocyclic anthracycline analogs” (priority 1994, dated 1997).

Key:
[1] = system: NCl-H23; assay: NCI sulforhodamine B assay; assay type: cell-based; settings: Homo sapiens, read-out: Log10 GI50 (converted)
Procedure: (§1) These assays were carried out at the Developmental Therapeutics Program, Division of Cancer Treatment, National Cancer Institute (Bethesda, Md., U.S.A.). The method consists of incubating varying concentrations of the drug with an inoculum of cells for two days. […] The 57 cell lines included two mouse leukemia lines (P388 parental and adriamycin resistant) and […] human cell lines.
(§2) It should be noted that the first two parameters (GI50 and TGI) relate to antiproliferation effects while the third one (LC50) indicates true cytotoxicity. A value of -4 or greater is considered to denote resistance (inactivity).

[2] = system: OVCAR-4; assay: NCI sulforhodamine B assay; assay type: cell-based; settings: Homo sapiens, OVCAR-4, OVCAR-4; read-out: Log10 GI50 (converted)
Procedure: as §1, §2

[3] = system: HT29; assay: Soft agar colony formation disk diffusion assay; assay type: cell-based, human; settings: 100 μg/DISK
Description: A more elaborate version of this fundamental assay, the soft agar colony formation disk diffusion assay was used. This assay defines the relative activity of one particular drug versus a tumoral cell line type. The effect of the test drug against tumoral cells could be measured by its inhibitory capacity against colony formation after the delivery of the compound, in different concentrations on an filter disk(4). A modified technique of this assay was used in order to investigate the antiproliferative activity of candidate compounds. Tumoral cells from solid tumors and ascitic lines were plated separately in a two layer agar matrix. Cell lines to be tested were suspended in an upper layer of 0.4% Noble agar (Difco#00142-01) in RPMI-1066 (Gibco#3201875) at a yield varying between 10^4 to 2×10^5 cells per 60 mm Petri dish. Plating efficiency was determined for each line in order to achieve an optimal number of colonies per dish. Plates were examined before drug administration to confirm a uniform dispersion of single cells. The bottom layer consisted of 0.8% Noble agar, 0.8% Tryptic Soy Broth (difco#0037001)in CMRL-1066/Fischer's. The bottom layers were used within 2 and 9 days of preparation. […]

[4] = system: CNS; assay: NCI assay, average per cancer type; settings: 2880 min

COC(=O)C1CC2=C(C(=O)c3c(cc4ccccc4c3O)C2=O)C(O[C@H]2C[C@H](NC(=O)C(F)(F)F)[C@H](O)[C@H](C)O2)O1 (mixture of isomers) [BCH-242, (1'S,1R,3S) and (1'S, 1S,3R)-Methyl[11-hydroxy-1-2',3',6'-trideoxy-3-trifluroacetamido-L-lyxohexopyranose)-5,12-dioxo-3,4,5,12-tetrahydroanthraceno[2,3-c]pyran-3-yl]formate]
GI50 [1]: 1.82 µM
GI50 [2]: 1.82 µM

COC(=O)[C@H]1CC2=C(C(=O)c3c(cc4ccccc4c3O)C2=O)[C@H](O[C@H]2C[C@H](NC(=O)C(F)(F)F)[C@H](O)[C@H](C)O2)O1 (mixture of isomers) [BCH-692, (1'S,1S,3R) and (1'S,1R,3S) Methyl[11-hydroxy-1-(2',3',6'-trideoxy-3'-trifluoroacetamido-4'-hydroxy-L-lyxohexopyranose)-5,12-dioxo-3,4,5,12-tetrahydro-anthraceno[2,3-c]pyran-3-yl]formate]
zone of inhibition [3]: 181.5 ± 2.1 Zone Units

COc1cccc2c1C(=O)c1c(O)c3c(c(O)c1C2=O)C[C@@](O)(C(=O)CO)C[C@@H]3O[C@H]1C[C@H](N)[C@H](O)[C@H](C)O1 [ADR, reference compound]
Average LOG10 LC50 [4]: -5.03 ± 0.35 log molar
